Read-outs that look alike come from different tables or passages of the source.
Target: T1, BIKE (amino acids S38-E345) (K320A, K321A) (Homo sapiens, UniProt Q9NSY1, K320A/K321A)
T1 construct: against BIKE (amino acids S38-E345) (K320A, K321A); 6His (N, cleaved yes)
Assay: BIKE pSENs assay
Format: biochemical
Method: The recombinant proteins were independently expressed in Escherichia coli BL21(DE3) cells cultured in Luria-Bertani (LB) medium until OD600 reached 0.6-0.8, then cooled to 15° C. and supplemented with 0.5 mM isopropyl 1-thio-D-galactopyranoside (IPTG) induce protein expression 16 h. Cells were harvested and resuspended in lysis buffer (50 mM HEPES pH 7.5, 500 mM NaCl, 5 mM imidazole, 5% glycerol, 0.5 mM Tris (2-carboxyethyl) phosphine (TCEP), cOmplete Protease Inhibitor Tablet (Roche)) and lysed by microfludics high pressure homogenizer (UH-06, Union-Biotech). Proteins were purified using […] chromatography (His FF column, Bestchrom) and eluted stepwise in binding buffer with 20-300 mM imidazole. Removal of the hexahistidine tag was performed at 4° C. overnight using recombinant TEV protease and reacted with BirA to obtain the corresponding biotinylated-AAK1, BIKE or GAK proteins. Further separated in the reverse Strep column (Strep-Tactin® XT, IBA). The Biotin elution sample was collected containing untagged biotinylated protein was then purified by Ion-exchange chromatography (Mono Q 10/100 GL, Cytiva) and Size-exclusion chromatography (HiLoad 16/600 Superdex 200 pg, Cytiva). The pure protein was stored in a storage buffer 50 mM HEPES (pH 7.5), 300 mM NaCl, 5% glycerol at −80° C. Protein were characterized by SDS-PAGE, LC-MS and aSEC.
BIKE protein was dissolved at 20 nM in 1× enzyme solution (50 mM HEPES pH7.5, 10 mM MgCl2, 1 mM DTT, 1% glycerol, 0.5 mM EGTA, 0.01% Briji35, 0.02% BSA) and 12.5 ul was incubated with 250 nl DMSO or 250 nl compound in DMSO at 25° C. for 15 min. The reaction was started by addition of 12.5 ul of 30 uM AQT0759 (Assayquant, CSKS-AQT0759B) and 40 uM ATP which were diluted in 1× substrate dilution buffer (50 mM HEPES pH7.5, 10 mM MgCl2, 1 mM DTT, 1% glycerol, 0.5 mM EGTA, 0.01% Briji35).

The chains behind the UniProt entries cited, without tags or fusion partners. Residues count along the entry.
UniProt Q9NSY1, 38-345 K320A/K321A: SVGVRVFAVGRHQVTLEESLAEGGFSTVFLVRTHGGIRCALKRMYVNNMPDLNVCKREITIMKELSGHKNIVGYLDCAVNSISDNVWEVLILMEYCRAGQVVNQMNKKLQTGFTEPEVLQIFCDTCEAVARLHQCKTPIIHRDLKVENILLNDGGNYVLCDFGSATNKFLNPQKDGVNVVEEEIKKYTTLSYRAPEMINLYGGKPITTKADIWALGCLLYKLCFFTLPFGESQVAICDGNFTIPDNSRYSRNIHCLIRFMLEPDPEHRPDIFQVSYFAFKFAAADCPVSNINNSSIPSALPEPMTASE

[1] = class symbols, read-out: BIKE pSENs: IC50

Row | IC50 | Compound | IC50 [1]
1 | – | NC(=O)CN1C[C@@H](OC(=O)N2CCN(c3ccn4ncc(-c5cccnc5OC5CC5)c4n3)CC2)CC1=O [Compound I-28, [(3S)-1-(2-Amino-2-oxo-ethyl)-5-oxo-pyrrolidin-3-yl]4-[3-[2-(cyclopropoxy)-3-pyridyl]pyrazolo[1,5-a]pyrimidin-5-yl]piperazine-1-carboxylate] | 51 to 150 nM
2 | – | CN1C[C@@H](OC(=O)N2CCN(c3ccn4ncc(Br)c4n3)CC2)CC1=O [Compound I-95, [(3S)-1-methyl-5-oxo-pyrrolidin-3-yl]4-(3-bromopyrazolo[1,5-a]pyrimidin-5-yl)piperazine-1-carboxylate] | > 1500 nM
3 | > 1500 nM | COc1ncccc1-c1cnn2ccc(N3CCNCC3)nc12 [Compound I-102-2, 3-(2-methoxy-3-pyridyl)-5-piperazin-1-yl-pyrazolo[1,5-a]pyrimidine] | –
4 | > 1500 nM | c1cnc(OC2CC2)c(-c2cnn3ccc(N4CCNCC4)nc23)c1 [Compound I-107, 3-[2-(cyclopropoxy)-3-pyridyl]-5-piperazin-1-yl-pyrazolo[1,5-a]pyrimidine] | –

Source: US20250122207A1, “AP2 ASSOCIATED KINASE 1 INHIBITORS AND USES THEREOF” (Satellos Bioscience Inc., priority 2023, published 2025)
